In patent publication US8314234B2, “Bicyclic pyrimidine kinase inhibitors” (Janssen Pharmaceutica N.V., priority 2006, dated 2012) one finds IC50 data, which are given here for one compound.

The chains behind the UniProt entries cited, without tags or fusion partners.
UniProt P06493, whole entry: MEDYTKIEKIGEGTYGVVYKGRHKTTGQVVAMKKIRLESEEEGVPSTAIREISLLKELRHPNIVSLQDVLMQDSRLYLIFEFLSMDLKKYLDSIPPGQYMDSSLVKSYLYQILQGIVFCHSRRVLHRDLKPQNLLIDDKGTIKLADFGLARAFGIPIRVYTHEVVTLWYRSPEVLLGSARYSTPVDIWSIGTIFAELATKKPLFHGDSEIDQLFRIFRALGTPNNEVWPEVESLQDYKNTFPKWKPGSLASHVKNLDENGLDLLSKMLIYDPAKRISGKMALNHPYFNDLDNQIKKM

One test deals with T1, CDK1 (Homo sapiens, UniProt P06493).
T1 construct: purchased New England Biolabs, Beverly, Mass; 6020; host or cells: insect cells
Put plainly: CDK-1 screening assay. It is filed as biochemical. How it is done: (§1) 70 μL of the kinase reaction mixture was dispensed into the well of a streptavidin coated FlashPlate™ (Cat. #SMP103, NEN, Boston, Mass.).
(§2) Test compound stock in 100% DMSO (1 μL) was added to the wells resulting in a final concentration of 1% DMSO in the reaction with a 100 μL final reaction volume. Each enzyme was diluted in 50 mM Tris-HCl pH=8.0, 0.1% BSA and 30 μL was added to each well to initiate the reaction. The reaction was incubated for one hour at 30° C. At the end of the 1 hr incubation, the reaction was terminated by aspirating the mixture from the plate and washing the wells twice with PBS containing 100 mM EDTA. The biotinylated peptide substrate became immobilized on the Flashplate and the incorporation of ^33P-γ-ATP was measured by reading the plate on a scintillation counter. Inhibition of the enzymatic activity was measured by observing a reduced amount of ^33P-γ-ATP incorporated into the immobilized peptide.
(§3) A maximum and minimum signal for the assay was determined on each plate. The percent inhibition of a test compound was calculated according to the formula: […]
(§4) The term “ND” means “not determined.”

Another test addresses T2, CDK2 (Homo sapiens, UniProt P24941).
T2 construct: purchased Upstate Biotech, Lake Placid, N.Y
In words: CDK-2 screening assay. In kind it is biochemical. How it is done:
as §1, §2
The CDK2 enzyme in complex with cyclin A is commercially available (Upstate Biotech, Lake Placid, N.Y.).
as §3, §4

With `NS(=O)(=O)c1ccc(Nc2nc(OCC3CCCCC3)c3cn[nH]c3n2)cc1` [Cpd 23, 4-(4-cyclohexylmethoxy-1H-pyrazolo[3,4-d]pyrimidin-6-ylamino)-benzenesulfonamide], the figures for the IC50 on CDK1 and against CDK2 were 662 nM and 52 nM, respectively.
